One molecule from patent US6171786A, “Methods for preventing multidrug resistance in cancer cells” (priority 1996, dated 2001) can be followed below.

This assay concerns MDR1 expression (P-glycoprotein). Put plainly: Induction of MDR1 expression by cytotoxic drugs (dye efflux, UIC2, cDNA-PCR). The assay is classed as cell-based, human.

Take `O=C(O)CCCc1ccc(N(CCCl)CCCl)cc1` [chlorambucil]: the “maintenance of MDR1 expression after removal of drug” value (K562 subpopulation, treated 3-5 days then drug-free) was “maintained for a least several weeks”. Further, where the note is “human leukemia and solid-tumor derived cell lines, short-term exposure”, the MDR1 induction entry was “MDR1 induction, both at the mRNA and at the protein levels, was observed”.
